Values quoted from earlier work, collected in US20240158750A1, “STROMA-FREE NK CELL DIFFERENTIATION FROM HUMAN PLURIPOTENT STEM CELLS” (The Children's Medical Center Corporation, priority 2021, published 2024).

Sequences of proteins named here, by UniProt entry; tags and fusion partners are left off. A change or cut given only in a name is not applied to a line headed by its entry.
UniProt O43463: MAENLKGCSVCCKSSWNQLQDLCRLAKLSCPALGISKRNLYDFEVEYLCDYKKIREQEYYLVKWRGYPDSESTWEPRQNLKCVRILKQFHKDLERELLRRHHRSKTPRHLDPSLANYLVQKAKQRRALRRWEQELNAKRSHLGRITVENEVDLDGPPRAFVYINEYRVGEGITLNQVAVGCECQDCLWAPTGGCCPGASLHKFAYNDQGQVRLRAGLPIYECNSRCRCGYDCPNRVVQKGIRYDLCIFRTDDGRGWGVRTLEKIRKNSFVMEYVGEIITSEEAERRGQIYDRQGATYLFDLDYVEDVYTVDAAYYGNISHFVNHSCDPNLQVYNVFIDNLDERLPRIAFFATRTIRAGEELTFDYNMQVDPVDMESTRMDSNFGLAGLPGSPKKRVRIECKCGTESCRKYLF
UniProt P26358: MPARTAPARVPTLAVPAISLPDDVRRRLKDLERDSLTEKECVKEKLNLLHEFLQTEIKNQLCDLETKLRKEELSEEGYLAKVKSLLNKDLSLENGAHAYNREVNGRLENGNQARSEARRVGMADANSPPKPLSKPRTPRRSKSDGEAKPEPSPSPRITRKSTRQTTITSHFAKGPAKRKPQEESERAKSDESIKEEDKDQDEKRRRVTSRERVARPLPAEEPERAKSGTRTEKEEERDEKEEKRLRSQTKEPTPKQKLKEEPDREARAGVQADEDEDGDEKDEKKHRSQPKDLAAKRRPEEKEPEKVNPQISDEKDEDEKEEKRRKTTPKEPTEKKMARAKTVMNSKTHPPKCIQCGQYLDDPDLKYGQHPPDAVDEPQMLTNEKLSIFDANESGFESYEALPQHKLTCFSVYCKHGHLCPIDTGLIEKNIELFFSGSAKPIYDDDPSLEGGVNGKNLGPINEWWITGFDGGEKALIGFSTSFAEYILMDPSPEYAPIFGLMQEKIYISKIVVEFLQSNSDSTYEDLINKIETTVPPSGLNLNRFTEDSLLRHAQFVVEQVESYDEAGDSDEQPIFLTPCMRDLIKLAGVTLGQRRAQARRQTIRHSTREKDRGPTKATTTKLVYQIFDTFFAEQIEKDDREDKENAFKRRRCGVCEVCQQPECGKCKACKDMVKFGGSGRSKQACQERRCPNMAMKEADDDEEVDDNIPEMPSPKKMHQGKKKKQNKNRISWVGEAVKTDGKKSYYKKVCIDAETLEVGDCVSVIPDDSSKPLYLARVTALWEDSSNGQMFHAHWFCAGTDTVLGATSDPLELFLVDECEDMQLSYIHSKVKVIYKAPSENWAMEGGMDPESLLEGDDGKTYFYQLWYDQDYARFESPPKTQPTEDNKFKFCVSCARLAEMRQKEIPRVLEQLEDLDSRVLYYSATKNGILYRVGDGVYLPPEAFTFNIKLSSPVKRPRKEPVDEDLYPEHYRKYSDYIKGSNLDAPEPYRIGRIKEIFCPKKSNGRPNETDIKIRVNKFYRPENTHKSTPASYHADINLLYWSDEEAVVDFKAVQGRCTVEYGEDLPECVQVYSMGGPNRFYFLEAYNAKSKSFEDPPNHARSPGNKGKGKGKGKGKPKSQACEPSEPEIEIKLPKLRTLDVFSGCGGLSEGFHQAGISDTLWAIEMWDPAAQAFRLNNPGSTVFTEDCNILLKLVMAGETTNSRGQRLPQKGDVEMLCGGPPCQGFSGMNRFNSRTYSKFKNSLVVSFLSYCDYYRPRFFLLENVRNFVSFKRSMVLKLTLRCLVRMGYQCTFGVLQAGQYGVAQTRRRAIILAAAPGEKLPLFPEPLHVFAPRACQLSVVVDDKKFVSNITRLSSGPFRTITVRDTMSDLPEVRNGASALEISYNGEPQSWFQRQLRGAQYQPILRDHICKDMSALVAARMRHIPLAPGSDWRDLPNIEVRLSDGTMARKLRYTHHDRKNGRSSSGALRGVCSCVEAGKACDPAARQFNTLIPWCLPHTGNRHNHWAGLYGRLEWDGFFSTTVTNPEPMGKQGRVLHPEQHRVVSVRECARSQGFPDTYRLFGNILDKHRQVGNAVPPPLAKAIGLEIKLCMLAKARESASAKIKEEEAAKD

What was measured:
[1] = molecular target: T1, G9a (Homo sapiens, UniProt Q96KQ7); details: cited from earlier work
T1 sequence (Q96KQ7 1-1210): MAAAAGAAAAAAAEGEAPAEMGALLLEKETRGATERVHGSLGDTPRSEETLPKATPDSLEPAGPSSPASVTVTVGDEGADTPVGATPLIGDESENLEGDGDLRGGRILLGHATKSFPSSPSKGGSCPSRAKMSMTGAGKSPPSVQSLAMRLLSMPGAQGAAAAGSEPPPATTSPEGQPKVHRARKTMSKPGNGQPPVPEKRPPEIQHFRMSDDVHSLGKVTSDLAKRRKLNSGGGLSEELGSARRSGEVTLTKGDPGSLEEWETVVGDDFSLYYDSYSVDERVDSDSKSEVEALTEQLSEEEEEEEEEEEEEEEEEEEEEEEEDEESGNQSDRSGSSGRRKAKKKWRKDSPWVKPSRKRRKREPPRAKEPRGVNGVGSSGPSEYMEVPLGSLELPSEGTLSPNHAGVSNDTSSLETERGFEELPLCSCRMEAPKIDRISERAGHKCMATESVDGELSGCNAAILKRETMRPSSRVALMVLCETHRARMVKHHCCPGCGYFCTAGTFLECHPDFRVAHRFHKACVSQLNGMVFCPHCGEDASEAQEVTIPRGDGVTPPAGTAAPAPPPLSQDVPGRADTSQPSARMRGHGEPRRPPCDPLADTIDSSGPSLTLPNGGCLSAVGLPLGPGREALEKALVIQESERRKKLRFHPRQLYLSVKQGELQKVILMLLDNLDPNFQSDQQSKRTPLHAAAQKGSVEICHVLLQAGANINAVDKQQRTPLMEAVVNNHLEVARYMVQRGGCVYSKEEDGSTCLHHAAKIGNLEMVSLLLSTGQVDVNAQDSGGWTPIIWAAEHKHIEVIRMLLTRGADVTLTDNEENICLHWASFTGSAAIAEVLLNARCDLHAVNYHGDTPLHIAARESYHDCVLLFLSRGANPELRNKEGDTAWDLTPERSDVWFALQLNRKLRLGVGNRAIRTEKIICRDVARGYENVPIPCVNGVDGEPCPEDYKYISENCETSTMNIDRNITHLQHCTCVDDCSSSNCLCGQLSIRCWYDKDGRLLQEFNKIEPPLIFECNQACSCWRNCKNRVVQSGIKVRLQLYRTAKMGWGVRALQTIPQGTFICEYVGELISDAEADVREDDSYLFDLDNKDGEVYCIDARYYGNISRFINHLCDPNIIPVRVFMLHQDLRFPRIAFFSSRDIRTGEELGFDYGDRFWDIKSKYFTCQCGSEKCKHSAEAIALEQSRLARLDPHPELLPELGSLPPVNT

[2] = molecular target: SU39H1 (Homo sapiens, UniProt O43463); details: up to a concentration of 40 μM; cited from earlier work
[3] = molecular target: NDMT1 (Homo sapiens, UniProt P26358); details: up to a concentration of 40 μM; cited from earlier work

In the case of O=C(O)c1ccc2c(c1)nc(NC(=O)c1ccccc1)n2CCCc1ccccc1 [BRD9539], the “potency compared with BRD4770” value [1] is listed as “is more potent than”, the “selectivity for G9a and PRC2 over SU39H1” value [2] is listed as “selective” and the “selectivity for G9a and PRC2 over NDMT1” value [3] is listed as “selective”.
